# Measured values published in article PMC2783604 (Synapse (New York, N.Y.), 2009).
# Chains of the proteins cited; added tags and fusions are not shown. Lines headed by an entry give the natural chain unless they say otherwise; changes in a name come on top.
# UniProt P14416, whole entry: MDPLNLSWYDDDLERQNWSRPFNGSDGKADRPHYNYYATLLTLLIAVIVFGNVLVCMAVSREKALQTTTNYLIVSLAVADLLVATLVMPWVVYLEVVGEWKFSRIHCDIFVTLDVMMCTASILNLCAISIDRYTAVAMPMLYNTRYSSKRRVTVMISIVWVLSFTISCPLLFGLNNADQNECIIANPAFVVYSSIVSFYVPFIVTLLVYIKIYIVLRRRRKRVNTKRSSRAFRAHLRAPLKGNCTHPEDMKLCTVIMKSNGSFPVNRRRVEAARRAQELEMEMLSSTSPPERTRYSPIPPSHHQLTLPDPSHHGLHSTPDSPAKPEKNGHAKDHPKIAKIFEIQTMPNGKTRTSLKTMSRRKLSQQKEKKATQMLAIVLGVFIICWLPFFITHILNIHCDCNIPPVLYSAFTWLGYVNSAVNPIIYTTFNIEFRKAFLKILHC
# Molecular target: dopamine D2L receptor (hD2L) (Homo sapiens, UniProt P14416)
# Assay: radioligand saturation binding
smiles,measurement,value
CCN1CCC[C@H]1CNC(=O)c1c(O)c(Cl)cc(Cl)c1OC [[^3H]raclopride],Kd,1.6 ± 0.1 nM
